This test addresses KOPr (Homo sapiens, UniProt P41145). The test is described as follows: [35S]GTPγS binding, CHO membranes, standard U69593. It is filed as biochemical. The note with it: Ke/nM KOPr, antagonist Ke versus U69593, single agonist concentration.

Chains of the proteins cited; added tags and fusions are not shown. Lines headed by an entry give the natural chain unless they say otherwise; changes in a name come on top.
UniProt P41145: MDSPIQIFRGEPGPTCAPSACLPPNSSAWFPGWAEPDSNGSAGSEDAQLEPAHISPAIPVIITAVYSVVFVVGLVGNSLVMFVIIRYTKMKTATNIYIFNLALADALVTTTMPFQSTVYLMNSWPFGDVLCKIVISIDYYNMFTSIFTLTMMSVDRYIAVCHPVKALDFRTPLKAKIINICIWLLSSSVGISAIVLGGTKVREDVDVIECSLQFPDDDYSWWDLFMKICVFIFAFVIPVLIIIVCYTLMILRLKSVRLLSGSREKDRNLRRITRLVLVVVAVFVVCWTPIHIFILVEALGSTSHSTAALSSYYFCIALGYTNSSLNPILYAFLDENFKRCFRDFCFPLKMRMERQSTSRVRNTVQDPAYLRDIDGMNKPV

The record followed here is paper PMC4112151 (Bioorganic & medicinal chemistry, 2014).

The term Kd denotes the concentration at which binding is half-saturated. Low values mean a tighter complex, high ones a looser complex. `Oc1ccc2c3c1O[C@H]1c4[nH]c5ccccc5c4C[C@@]4(O)[C@@H](C2)N(CC2CC2)CC[C@]314` [Naltrindole, naltrindole, reference compound] had a Kd of 4.95 nM.
